This note sets out measurements from US10202406B2, “Boron cluster compounds and uses thereof” (priority 2011, dated 2019).

The series relates to mice. The experiment in a line: Motor deficit testing, inverted screen test after injection. Conditions: mice after hind limb injection.

With “9-Diethylaminoacetamido-1,7-closo-carborane [m-carborane lidocaine]”, the “motor block (number of experiments with motor block)” value is given as “neither motor nor sensory block”.
